Key:
[1] = tested on: SH-SY5Y and dSH-SY5Y cells

Q: Which “cytotoxic sensitivity of dSH-SY5Y cells relative to SH-SY5Y cells” value [1] does the source give for Ziram here?
A: more sensitive

Q: What about the “cytotoxic sensitivity ([ATP] IC50) of LUHMES and/or dLUHMES relative to the other cell lines” value (LUHMES and dLUHMES cells) of the same substance?
A: more sensitive than the other cell lines

Q: And the “relative cytotoxic sensitivity of LUHMES versus dLUHMES cells” value (LUHMES and dLUHMES cells)?
A: dLUHMES cells were markedly more sensitive than LUHMES cells

Q: What about the “relative cytotoxic sensitivity of NSC versus dNSC” value (NSC and dNSC cells) of the same substance?
A: the converse was true

— article PMC5094908 (Journal of applied toxicology : JAT, 2016)
